The test system of assay [1] is "Repair and Rebuild" associated genes. Nature of the assay: Eigengene analysis of "Repair and Rebuild" co-expression module. The following applies: 301 genes, FIG. 9.
Assay [2] relates to "Clear and Detox" module genes. Nature of the assay: Eigengene analysis of "Clear and Detox" co-expression module. The settings on record: FIG. 8.

2 substances from patent publication US20160074291A1, “ANTI-AGING SKIN CARE COMPOSITIONS AND REGIMENS” (The Procter & Gamble Company, priority 2014, published 2016) can be followed below.

In the case of palmitoyl-lysine-threonine [Pal-KT], the “effect on "Repair and Rebuild" eigengene” value in assay [1] was “up-regulated the eigengene, but to a lesser extent than Pal-KTTS and Olivem® 460”.
For the substance “palmitoyl-lysine-threonine-threonine-lysine-serine [Pal-KTTKS]”, the “effect on "Clear and Detox" eigengene” value in assay [2] is “up-regulate the eigengene, but to a lesser extent than pal-KT”.
